This note sets out measurements from US12473332B2, “Modified peptides and associated methods of use” (Advanced Technologies For Novel Therapeutics, LLC, priority 2019, dated 2025).

Where no end group is shown, it is not given here. [ ]: non-standard residue; d: D form. 1Nal = N[C@@H](Cc1cccc2ccccc12)C(=O)O

This assay is described as follows: MTT assay of ZaTa fragments, dimer and modified variants.

Take KGRT[1Nal]TLC: the anti-cell proliferative activity entry was “sufficient to inhibit cell proliferation”.
